Molecular target: T1, hAM1 receptor (Homo sapiens, UniProt O60895+Q16602)
T1 construct: monoclonal sub-clone
Experiment: cAMP assay for in vitro receptor activation, hAM1-R
Assay type: cell-based
Procedure: General Protocols for cAMP Assays for Measuring In Vitro Receptor Activation hAMY3-R:
Cells stably overexpressing the hAM1 receptor were obtained from Ogeda (now Astellas Pharma), sub-cloned and a monoclonal cell-line with an appropriate assay-window was expanded, aliquoted and frozen. An aliquot was thawed and plated in DPBS with 0.05% casein and 0.5 mM IBMX as 8000 cells/well in a 384-well format.

Sequences of proteins named here, by UniProt entry; tags and fusion partners are left off. Residues count along the entry.
UniProt O60895, 43-175 partner: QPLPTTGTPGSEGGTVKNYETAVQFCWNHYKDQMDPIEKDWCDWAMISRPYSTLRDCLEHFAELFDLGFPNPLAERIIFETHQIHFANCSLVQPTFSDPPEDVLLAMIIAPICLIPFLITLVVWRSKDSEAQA
UniProt Q16602, 23-461: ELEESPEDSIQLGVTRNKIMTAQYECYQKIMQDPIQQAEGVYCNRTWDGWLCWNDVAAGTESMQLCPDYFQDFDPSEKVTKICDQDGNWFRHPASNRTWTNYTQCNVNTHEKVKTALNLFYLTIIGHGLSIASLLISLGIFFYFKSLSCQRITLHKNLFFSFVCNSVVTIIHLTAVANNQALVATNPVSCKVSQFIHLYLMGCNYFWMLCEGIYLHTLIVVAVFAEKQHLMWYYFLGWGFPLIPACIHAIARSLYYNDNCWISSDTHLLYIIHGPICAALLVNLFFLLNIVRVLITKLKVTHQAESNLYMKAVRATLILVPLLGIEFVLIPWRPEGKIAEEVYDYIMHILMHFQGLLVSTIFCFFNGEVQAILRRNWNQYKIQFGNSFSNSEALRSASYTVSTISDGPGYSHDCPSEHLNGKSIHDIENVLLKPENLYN

activity on AM1R: inactive
SMILES: CC[C@H](C)[C@H](NC(=O)[C@H](C)NC(=O)CNC(=O)[C@H](Cc1ccccc1)NC(=O)[C@H](CC(N)=O)NC(=O)[C@H](CC(N)=O)NC(=O)[C@H](CO)NC(=O)[C@H](CO)NC(=O)[C@H](Cc1c[nH]cn1)NC(=O)[C@@H](NC(=O)[C@H](CC(C)C)NC(=O)[C@H](Cc1ccccc1)NC(=O)[C@H](CC(N)=O)NC(=O)[C@H](C)NC(=O)[C@H](CC(C)C)NC(=O)[C@H](CCCNC(=N)N)NC(=O)[C@H](CCC(N)=O)NC(=O)[C@@H](NC(=O)[C@H](C)NC(=O)[C@@H]1CSSC[C@H](NC(=O)[C@@H](N)CCCCN)C(=O)N[C@@H](CC(N)=O)C(=O)N[C@@H]([C@@H](C)O)C(=O)N[C@@H](C)C(=O)N[C@@H]([C@@H](C)O)C(=O)N1)[C@@H](C)O)C(C)C)C(=O)N[C@@H](CC(C)C)C(=O)N[C@@H](CO)C(=O)N[C@@H](CO)C(=O)N[C@H](C(=O)N[C@@H](CC(N)=O)C(=O)N[C@H](C(=O)NCC(=O)N[C@@H](CO)C(=O)N[C@@H](CC(N)=O)C(=O)N[C@H](C(=O)N[C@@H](Cc1ccc(O)cc1)C(N)=O)[C@@H](C)O)C(C)C)[C@@H](C)O [SEQ ID NO: 2]

Reference: patent US20250361281A1, “AMYLIN RECEPTOR (hAMY3R) AGONISTS WITH IMPROVED CHEMICAL STABILITY” (GUBRA A/S, priority 2022, published 2025)
